Source: patent publication US10723711B2, “1,1,1-trifluoro-3-hydroxypropan-2-yl carbamate derivatives and 1,1,1-trifluoro-4-hydroxybutan-2-yl carbamate derivatives as MAGL inhibitors” (PFIZER INC., priority 2015, dated 2020)

Protein sequences, listed by entry. Tags and fused reporters are not part of them.
UniProt Q99685, whole entry: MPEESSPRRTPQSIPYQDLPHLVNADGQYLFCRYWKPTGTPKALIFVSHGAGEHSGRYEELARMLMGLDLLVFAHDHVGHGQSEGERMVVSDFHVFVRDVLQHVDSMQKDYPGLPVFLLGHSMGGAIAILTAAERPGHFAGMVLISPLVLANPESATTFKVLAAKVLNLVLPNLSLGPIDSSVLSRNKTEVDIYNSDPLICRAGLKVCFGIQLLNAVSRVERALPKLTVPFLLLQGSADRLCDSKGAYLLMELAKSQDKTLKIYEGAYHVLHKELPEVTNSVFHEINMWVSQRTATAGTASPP

Target: human recombinant Monoacylglycerol Lipase (Homo sapiens, UniProt Q99685)
Assay: MAGL inhibition enzymatic assay, fluorogenic substrate 7-HCA, IC50 at T=0 min or after 30 minute incubation (T=30 min)
Details: geometric mean of 2-4 determinations unless otherwise indicated, tested form: ammonium salt
[1] = read-out: MAGL (T = 0 min) IC50, T = 0 min (substrate added immediately)
[2] = read-out: MAGL (T = 30 min) IC50, T = 30 min (30 minute incubation)

Structure (SMILES) | pIC50 [1] | pIC50 [2]
COP(=O)(O)OC[C@@H](OC(=O)N1CCC2(CC1)CN(S(=O)(=O)c1ccc(F)cc1)CCO2)C(F)(F)F | < 5.52 | 6.09
CCOP(=O)(O)OC[C@@H](OC(=O)N1CCC2(CC1)CN(S(=O)(=O)c1ccc(F)cc1)CCO2)C(F)(F)F | 6.70 | 7.82

pIC50: −log10 of the molar value. Read-outs that look alike come from different tables or passages of the source.
